Laboratory results taken from the supplement of paper PMC11537057.
This list holds what a sample rich in hits left over.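 The calls were made as follows: active = infection cut by 80% or more with cell growth above 90% in both runs; inactive = the rest.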

Each molecule was assayed on HSV-1 strain 17 YFP-ICP4 in A549 (assay: HSV-1 infection relative to DMSO (ICP4-YFP per H2B-RFP signal); higher = more viral infection (less antiviral activity), active = hit call of the paper). Conditions: 10 µM; 48 h; MOI: 0.1.
Description: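 Selleck FDA-approved library (L1300) screened in duplicate at 10 µM on A549 H2B-mRuby cells in 384-well plates, infected with HSV-1 strain 17 YFP-ICP4 at MOI 0.1 one hour before drug addition. Imaged after 2 days at 37°C. Cell growth (H2B-RFP) and infection (ICP4-YFP) are expressed as % of DMSO-treated wells. Hits: growth >90% and infection <20% of DMSO.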

Compound	HSV-1 infection
CC[C@H](C)[C@H](NC(=O)[C@@H]1CCCN1C(=O)CNC(=O)[C@H](Cc1ccccc1)NC(=O)[C@H](CC(N)=O)NC(=O)[C@H](CC(N)=O)NC(=O)[C@H](CO)NC(=O)[C@H](CO)NC(=O)[C@H](Cc1c[nH]cn1)NC(=O)[C@@H](NC(=O)[C@H](CC(C)C)NC(=O)[C@H](Cc1ccccc1)NC(=O)[C@H](CC(N)=O)NC(=O)[C@H](C)NC(=O)[C@H](CC(C)C)NC(=O)[C@H](CCCNC(=N)N)NC(=O)[C@H](CCC(N)=O)NC(=O)[C@@H](NC(=O)[C@H](C)NC(=O)[C@@H]1CSSC[C@H](NC(=O)[C@@H](N)CCCCN)C(=O)N[C@@H](CC(N)=O)C(=O)N[C@@H]([C@@H](C)O)C(=O)N[C@@H](C)C(=O)N[C@@H]([C@@H](C)O)C(=O)N1)[C@@H](C)O)C(C)C)C(=O)N[C@@H](CC(C)C)C(=O)N1CCC[C@H]1C(=O)N1CCC[C@H]1C(=O)N[C@H](C(=O)N[C@@H](CC(N)=O)C(=O)N[C@H](C(=O)NCC(=O)N[C@@H](CO)C(=O)N[C@@H](CC(N)=O)C(=O)N[C@H](C(=O)N[C@@H](Cc1ccc(O)cc1)C(N)=O)[C@@H](C)O)C(C)C)[C@@H](C)O [Pramlintide Acetate]	inactive: 102%
